# Source: PubChem BioAssay AID1963576 (National Center for Advancing Translational Sciences (NCATS), 2024)
# Only a part is listed here, and it is no random draw. Inconclusive results are not listed. Activity calls are given as the source filed them. Calls come from the whole dose curve; as a rule, active = well fitted inhibition curve with a large enough effect; inconclusive = small, poorly fitted or top-dose-only effect; inactive = no such curve, though single readings can be large or run the other way.
# Assay: Primary qHTS assay for Inhibitors of ovarian cancer metastasis using an organotypic tumor microenvironment (TME) model.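 Note: plate controls were DMSO wells for no effect and tomatine positive control wells for full effect; nearly all actives have a fitted effect of over 65% in size.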
# Settings: SKOV3ip1-GFP adhesion/invasion on 3D omental model, fluorescence; at 23.2 µM (top of the series)
# From the text: PI: Ernst Lengyel MD., Ph.D. Department of Obstetrics and Gynecology, Section of Gynecologic Oncology University of Chicago Medicine, Chicago, Illinois. The tumor microenvironment (TME) is a key determinant of metastatic efficiency. We performed a quantitative high-throughput screen (qHTS) of diverse medicinal chemistry tractable scaffolds (44,420 compounds) and pharmacologically active small molecules (386 compounds) using a layered organotypic, robust assay representing the ovarian cancer metastatic TME. This 3D model contains primary human mesothelial cells, fibroblasts, and extracellular matrix, to which fluorescently labeled ovarian cancer cells are added. Initially, 100 compounds inhibiting ovarian cancer adhesion/invasion to the 3D model in a dose-dependent manner were identified. […]
# PROTOCOL TABLE (as described by Inglese J, Shamu CE and Guy RK. 2007) SEQUENCE No. (e.g., 1, 2, 3, etc.); […] […] 11; Detection; Fluorescence, excitation filter 488 nm, emission filter 509 nm. […] The number of GFP-labeled cells analyzed using a fluorescent cytometer TTP LabTech Acumen eX3 using 488 nm excitation filter and 509 nm emission filter. […] Yasgar A, Shinn P, Jadhav A, Auld DS, Michael S, Zheng W, Austin CP, Inglese J and Simeonov A, Compound Management for Quantitative High-Throughput Screening. […]
row,SMILES,"activity change, negative = inhibition"
1,CC1=C2[N-][C@@](C)([C@@H]3N=C(C(C)=C4N=C(C=C5N=C1[C@@](C)(CC(N)=O)[C@H]5CCC(N)=O)C(C)(C)[C@H]4CCC(N)=O)[C@](C)(CCC(=O)NC[C@@H](C)OP(=O)([O-])O[C@H]1[C@@H](O)[C@@H](n4cnc5cc(C)c(C)cc54)O[C@H]1CO)[C@H]3CC(N)=O)[C@@](C)(CC(N)=O)[C@@H]2CCC(N)=O.[C-]#N.[Co+3],inactive: 4.63%
